Source: patent publication US20200085742A1, “NANOSCALE CARRIERS FOR THE DELIVERY OR CO-DELIVERY OF CHEMOTHERAPEUTICS, NUCLEIC ACIDS AND PHOTOSENSITIZERS” (The University of Chicago, priority 2013, published 2020)

Tested on: H460 cells
Assay: Cytotoxicity of Pten and Pten-NCP
Settings: Pt concentration of up to 50 μM

Question: “bis(ethylenediamine)platinum bisphosphonic acid [Pten]” was tested. Which cytotoxicity did it give?
Answer: The cytotoxicity was “no cytotoxicity”.
